Literature values in publication PMC8608346.

Target: GPR1 (Homo sapiens) (UniProt P46091)

Kd: 14 pM
Substance: FAM19A1 (from UniProt Q7Z5A9)
